Reference: patent US12649008B2, “Peptide receptor radionuclide therapy” (The Regents of the University of California, priority 2020, dated 2026)
Like-named read-outs stand apart in the source and are kept apart here.

Experiments:
human serum proteins = assay: Serum protein (albumin) binding by ultrafiltration, human serum; type: in vitro ADME; conditions: 37° C.
Method: (§1) The devices were pre-treated with PBS containing Tween 20 (5% v/v) as disclosed in Hausner 2007, followed by triplicate rinses with PBS. An aliquot of each formulated radiotracer in PBS (≤25 μL, 20-60 KBq) was thoroughly mixed with 0.5 mL serum at 37° C. in a microfuge tube. The mixture was incubated at 37° C. for 5 min and an aliquot (50 μL) of was transferred to a tube for γ-counting. The remaining sample was transferred to a Centrifree Ultrafiltration device and centrifuged for 40 min. at 1500×g at ambient temperature (20-24° C.). An aliquot (50 μL) of the filtrate was transferred to a tube for γ-counting. For each radiotracer, a blank was run using 0.5 mL PBS/Tween 20 (5% v/v) instead of serum (n=4) to determine non-specific binding. Following γ-counting, the protein-bound radioactivity was calculated by subtracting the counts measured in the filtrate aliquot (i.e., not protein bound) from the counts in the corresponding serum aliquot. The data are expressed as mean±standard deviation of fraction of radioactivity bound to protein after subtraction of non-specific binding determined in the blank.

mouse serum proteins = assay: Serum protein (albumin) binding by ultrafiltration, mouse serum; type: in vitro ADME; conditions: 37° C.
Method: as §1

[1] = In vitro serum stability, human serum; type: in vitro ADME; conditions: 24 h, 37° C., read-out: stability in human serum (intact radiotracer)
Method: Mouse or human serum (500 μl, both purchased from Millipore Sigma) was combined with an aliquot of the formulated radiotracer (100-200 μCi) and incubated at 37° C. Aliquots (100-200 μl) were drawn for analysis at 1 and 2 h post-incubation for the ^68Ga radiotracers and 1 and 24 h post-incubation for ^177Lu radiotracers, mixed with absolute ethanol (500 μl, 4° C.), and centrifuged (2300× g, 3 min) to precipitate out serum proteins. The supernatant was diluted with HPLC Solvent A and analyzed by radio-HPLC to determine the fraction of intact radiotracer as disclosed in Hausner et al., “In vitro and in vivo evaluation of the effects of aluminum [^18F]fluoride radiolabeling on an integrin αvβ6-specific peptide” Nuclear medicine and biology.

BxPC-3 (αvβ6 (+)) tumors [2] = assay: Biodistribution in mice bearing BxPC-3 tumors; type: in vivo
Method: (§2) Female nu/nu nude mice (6-8 weeks old) were purchased from Charles River Laboratories (Wilmington, MA, USA) and handled according to the UC Davis Institutional Animal Care and Use Committee. BxPC-3 cells (5×10^6) in 100 μl 1:1 GFR-Matrigel: serum-free RPMI were implanted subcutaneously into the left shoulder flank and allowed to grow for approximately 2 weeks (therapy study) and 3 weeks (0.5-1 cm in diameter, for imaging and biodistribution studies). All cells were evaluated with flow cytometry before injection to confirm integrin expression levels. Food and water were available ad libitum.
(§3) For blocking studies, respective non-chelated cold peptide (30 mg/kg, 10 mg/mL (DOTA-5G) and 48 mg/kg, 16 mg/mL (DOTA-ABM-5G) solution in PBS) was injected 10 min. before the formulated radiotracer. At each time point, the mice (n=3/time point/radiotracer) were anesthetized and sacrificed. The tissues were collected, rinsed with PBS, and the radioactivity of each measured with a gamma counter. Radioactivity concentrations were calibrated, decay-corrected, and expressed as percent of injected dose per gram of tissue (% ID/g).

[3] = Biodistribution in mice bearing BxPC-3 tumors; type: in vivo; conditions: female, nu/nu nude, mouse, iv, total radioactivity; for tissue uptake at 1 h: 1 h p.i.; for tissue uptake at 24 h: 24 h p.i.; for tissue uptake at 48 h: 48 h p.i.; for tissue uptake at 72 h: 72 h p.i.; for tissue uptake at 4 h: 4 h p.i.
Method: as §2, §3

BxPC-3 (αvβ6 (+)) tumors [4] = assay: Blocking study (cold peptide 10 min before radiotracer), biodistribution; type: in vivo, mice; conditions: 1 h p.i.
Method: as §2, §3

[5] = as above; type: in vivo, mice; conditions: female, nu/nu nude, mouse, BxPC-3 tumor, iv, total radioactivity; 1 h p.i.; DOTA-5G 30 mg/kg 10 min before
Method: as §2, §3

[6] = BxPC-3 tumor, read-out: uptake BxPC-3 tumor
[7] = bladder, read-out: uptake Bladder
[8] = gall bladder, read-out: uptake Gall Bladder
[9] = kidneys, read-out: uptake Kidneys
[10] = large intestines, read-out: uptake Lg Intestines
[11] = muscle, read-out: uptake Muscle
[12] = pancreas, read-out: uptake Pancreas
[13] = small intestines, read-out: uptake Sm Intestines
[14] = spleen, read-out: uptake Spleen
[15] = stomach, read-out: uptake Stomach

CC(C)C[C@H](NC(=O)[C@H](CC(=O)O)NC(=O)CNC(=O)[C@H](CCCNC(=N)N)NC(=O)[C@H](CC(C)C)NC(=O)[C@H](CC(N)=O)NC(=O)[C@@H]1CCCN1C(=O)[C@@H](NC(=O)CNC(=O)[C@H](CC(N)=O)NC(=O)CNC(=O)CCOCCOCCOCCOCCOCCOCCOCCOCCOCCOCCOCCOCCOCCOCCOCCOCCOCCOCCOCCOCCOCCOCCOCCOCCOCCOCCOCCOCCNC(=O)CN1CCN(CC(=O)O)CCN(CC(=O)O)CCN(CC(=O)O)CC1)C(C)C)C(=O)N[C@@H](CCC(N)=O)C(=O)N[C@H](C(=O)N[C@@H](CC(C)C)C(=O)NCC(=O)N[C@@H](CCC(N)=O)C(=O)N[C@@H](CCCNC(=N)N)C(=O)N[C@H](C(=O)NCC(=O)N[C@@H](CCCNC(=N)N)C(=O)N[C@H](C(=O)NCCOCCOCCOCCOCCOCCOCCOCCOCCOCCOCCOCCOCCOCCOCCOCCOCCOCCOCCOCCOCCOCCOCCOCCOCCOCCOCCOCCOCCC(N)=O)[C@@H](C)O)C(C)C)C(C)C [[^177Lu]Lu DOTA-5G, metal not drawn]
albumin (serum protein) binding (human serum proteins): 16.2±0.4% | albumin (serum protein) binding (mouse serum proteins): 18.1±0.2% | remaining at 24 h [1]: ≥ 97% | BxPC-3/kidney ratio (BxPC-3 (αvβ6 (+)) tumors [2]; 1 h p.i.): 0.08±0.05 | BxPC-3/large intestine ratio (BxPC-3 (αvβ6 (+)) tumors [2]; 1 h p.i.): 0.31±0.02 | BxPC-3/stomach ratio (BxPC-3 (αvβ6 (+)) tumors [2]; 1 h p.i.): 0.31±0.06 | uptake Blood (BxPC-3 (αvβ6 (+)) tumors [2]; 1 h p.i.): 0.10±0.02 % ID/g | uptake BxPC-3 tumor (BxPC-3 (αvβ6 (+)) tumors [2]; 1 h p.i.): 1.23±0.19 % ID/g | uptake Kidneys (BxPC-3 (αvβ6 (+)) tumors [2]; 1 h p.i.): 12.23±3.91 % ID/g | uptake Stomach (BxPC-3 (αvβ6 (+)) tumors [2]; 1 h p.i.): 4.10±0.98 % ID/g | uptake Blood (BxPC-3 (αvβ6 (+)) tumors [2]; 24 h p.i.): 0.00 ± 0.00 % ID/g | uptake Blood (BxPC-3 (αvβ6 (+)) tumors [2]; 48 h p.i.): 0.00 ± 0.00 % ID/g | BxPC-3/kidney ratio (BxPC-3 (αvβ6 (+)) tumors [2]; 72 h p.i.): 0.14±0.05 | BxPC-3/large intestine ratio (BxPC-3 (αvβ6 (+)) tumors [2]; 72 h p.i.): 1.74±0.39 | BxPC-3/stomach ratio (BxPC-3 (αvβ6 (+)) tumors [2]; 72 h p.i.): 0.87±0.28 | uptake Blood (BxPC-3 (αvβ6 (+)) tumors [2]; 72 h p.i.): 0.00 ± 0.00 % ID/g | uptake BxPC-3 tumor (BxPC-3 (αvβ6 (+)) tumors [2]; 72 h p.i.): 0.81±0.16 % ID/g | uptake Kidneys (BxPC-3 (αvβ6 (+)) tumors [2]; 72 h p.i.): 6.16±1.45 % ID/g | uptake Stomach (BxPC-3 (αvβ6 (+)) tumors [2]; 72 h p.i.): 0.95±0.13 % ID/g | detectability in blood (BxPC-3 (αvβ6 (+)) tumors [2]; later time points (after 1 h)): undetectable | tissue uptake at 1 h [3, 6]: 1.23 ± 0.19 %ID/g | tissue uptake at 24 h [3, 6]: 1.05 ± 0.11 %ID/g | tissue uptake at 48 h [3, 6]: 1.07 ± 0.45 %ID/g | tissue uptake at 72 h [3, 6]: 0.81 ± 0.16 %ID/g | tissue uptake at 1 h [3, 7]: 3.83 ± 2.75 %ID/g | tissue uptake at 24 h [3, 7]: 0.93 ± 0.29 %ID/g | tissue uptake at 48 h [3, 7]: 0.89 ± 0.17 %ID/g | tissue uptake at 72 h [3, 7]: 0.71 ± 0.24 %ID/g | tissue uptake at 1 h ([3]; blood, read-out: uptake Blood): 0.1 ± 0.03 %ID/g | tissue uptake at 1 h ([3]; bone, read-out: uptake Bone): 0.17 ± 0.13 %ID/g | tissue uptake at 24 h ([3]; bone, read-out: uptake Bone): 0.11 ± 0.02 %ID/g | tissue uptake at 48 h ([3]; bone, read-out: uptake Bone): 0.09 ± 0.02 %ID/g | tissue uptake at 72 h ([3]; bone, read-out: uptake Bone): 0.06 ± 0.01 %ID/g | tissue uptake at 1 h ([3]; brain, read-out: uptake Brain): 0.01 %ID/g | tissue uptake at 24 h ([3]; brain, read-out: uptake Brain): 0.01 %ID/g | tissue uptake at 48 h ([3]; brain, read-out: uptake Brain): 0.01 %ID/g | tissue uptake at 72 h ([3]; brain, read-out: uptake Brain): 0.01 %ID/g | tissue uptake at 1 h [3, 8]: 0.33 ± 0.29 %ID/g | tissue uptake at 24 h [3, 8]: 0.18 ± 0.17 %ID/g | tissue uptake at 48 h [3, 8]: 0.74 ± 0.97 %ID/g | tissue uptake at 72 h [3, 8]: 0.34 ± 0.49 %ID/g | tissue uptake at 1 h ([3]; heart, read-out: uptake Heart): 0.35 ± 0.04 %ID/g | tissue uptake at 24 h ([3]; heart, read-out: uptake Heart): 0.14 ± 0.01 %ID/g | tissue uptake at 48 h ([3]; heart, read-out: uptake Heart): 0.13 ± 0.03 %ID/g | tissue uptake at 72 h ([3]; heart, read-out: uptake Heart): 0.1 ± 0.03 %ID/g | tissue uptake at 1 h [3, 9]: 12.2 ± 3.91 %ID/g | tissue uptake at 24 h [3, 9]: 9.54 ± 2.33 %ID/g | tissue uptake at 48 h [3, 9]: 7.52 ± 2.65 %ID/g | tissue uptake at 72 h [3, 9]: 6.16 ± 1.45 %ID/g | tissue uptake at 1 h [3, 10]: 3.98 ± 0.62 %ID/g | tissue uptake at 4 h [3, 10]: < 4 %ID/g | tissue uptake at 24 h [3, 10]: 1.95 ± 0.22 %ID/g | tissue uptake at 48 h [3, 10]: 1.31 ± 0.4 %ID/g | tissue uptake at 72 h [3, 10]: 0.46 ± 0.03 %ID/g | tissue uptake at 1 h ([3]; liver, read-out: uptake Liver): 0.1 ± 0.03 %ID/g | tissue uptake at 4 h ([3]; liver, read-out: uptake Liver): < 0.2 %ID/g | tissue uptake at 24 h ([3]; liver, read-out: uptake Liver): 0.06 ± 0.01 %ID/g | tissue uptake at 72 h ([3]; liver, read-out: uptake Liver): 0.04 %ID/g | tissue uptake at 1 h ([3]; lung, read-out: uptake Lung): 1.19 ± 0.18 %ID/g | tissue uptake at 24 h ([3]; lung, read-out: uptake Lung): 0.53 ± 0.06 %ID/g | tissue uptake at 48 h ([3]; lung, read-out: uptake Lung): 0.36 ± 0.09 %ID/g | tissue uptake at 72 h ([3]; lung, read-out: uptake Lung): 0.27 ± 0.05 %ID/g | tissue uptake at 1 h [3, 11]: 0.43 ± 0.05 %ID/g | tissue uptake at 24 h [3, 11]: 0.18 ± 0.05 %ID/g | tissue uptake at 48 h [3, 11]: 0.13 ± 0.01 %ID/g | tissue uptake at 72 h [3, 11]: 0.11 ± 0.07 %ID/g | tissue uptake at 1 h [3, 12]: 0.41 ± 0.38 %ID/g | tissue uptake at 24 h [3, 12]: 0.16 ± 0.03 %ID/g | tissue uptake at 48 h [3, 12]: 0.13 ± 0.04 %ID/g | tissue uptake at 72 h [3, 12]: 0.09 %ID/g | tissue uptake at 1 h ([3]; skin, read-out: uptake Skin): 0.75 ± 0.08 %ID/g | tissue uptake at 24 h ([3]; skin, read-out: uptake Skin): 0.58 ± 0.09 %ID/g | tissue uptake at 48 h ([3]; skin, read-out: uptake Skin): 0.41 ± 0.11 %ID/g | tissue uptake at 72 h ([3]; skin, read-out: uptake Skin): 0.23 ± 0.06 %ID/g | tissue uptake at 1 h [3, 13]: 2.18 ± 0.33 %ID/g | tissue uptake at 24 h [3, 13]: 0.82 ± 0.05 %ID/g | tissue uptake at 48 h [3, 13]: 0.4 ± 0.06 %ID/g | tissue uptake at 72 h [3, 13]: 0.13 ± 0.02 %ID/g | tissue uptake at 1 h [3, 14]: 0.03 ± 0.03 %ID/g | tissue uptake at 24 h [3, 14]: 0.01 ± 0.01 %ID/g | tissue uptake at 48 h [3, 14]: 0.01 ± 0.01 %ID/g | tissue uptake at 72 h [3, 14]: 0.01 ± 0.01 %ID/g | tissue uptake at 1 h [3, 15]: 4.1 ± 0.98 %ID/g | tissue uptake at 24 h [3, 15]: 2.55 ± 0.52 %ID/g | tissue uptake at 48 h [3, 15]: 1.84 ± 0.08 %ID/g | tissue uptake at 72 h [3, 15]: 0.95 ± 0.13 %ID/g | change of BxPC-3 tumor uptake by blocking (Δ) (BxPC-3 (αvβ6 (+)) tumors [4]): −75% | tissue uptake at 1 h [5]: 0.3 ± 0.02 %ID/g
